# Source: PubChem
# Compounds with a hit are over-represented: about 2.2% of the library has one in this group of screens.
# miR-21 FLuc = miR-21 reporter, rising signal | AID 2288 | HeLa miR-21 FLuc reporter, luciferase, 48 h | 340,000 tested, under 10 active | Potency, µM (titrated, usually from 38.3 µM), for the others: at the top dose reporter change, positive = more light; active = well fitted rising curve with a large enough effect; inconclusive = small, poorly fitted or top-dose-only effect; inactive = no such curve, though single readings can be large or run the other way;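 also: % of control where 0% means no effect; miR-21 action dims this reporter so a rising signal means less miR-21 action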
#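 Using DMEM plus 10% FBS, HeLa miR-21-FLuc cells are incubated with test compounds (final up to about 40uM) for 48 hours; firefly luciferase signal is then imaged following reagent-mediated lysis.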
# PI4K2A block = blocks human PI4K2A kinase activity; 420,000 tested, 0.13% active; activity change, negative = inhibition, % at 76.9 µM; purified PI4K2A, ADP-Glo luminescence, 1 h; hits give low values; in the data active means activity change below about -50%; inconclusive means mostly about -30% to -49%;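 further: -100% = wells without enzyme as full effect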
#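 PI4K2A activity was measured by ADP-Glo luminescence: enzyme (4 ug/mL stock) and phosphatidylinositol (1.2 mM stock) in Tris pH 7.5/MgCl2/EGTA/Triton X-100 buffer were reacted with ATP (300 microM stock) for one hour at ambient temperature.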
# GALK inh = galactokinase (human) inhibition | Potency, µM (doses to about 57.5 µM), inactives show top-dose activity change, negative = inhibition, actives largely listed as inhibitors | AID 1868 | Purified GALK, Kinase-Glo residual ATP luminescence | 270,000 tested, 0.007% active; further: potency means the concentration at half of the fitted maximal effect; on the % scale 0 is the no-effect control and ±100 the full control effect
#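 Quantitative HTS: GALK 5 nM, ATP 35 uM, galactose 100 uM, 1 h room temperature, then luciferase-based ATP detection.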
# A549 viability = counter-screen for Nrf2 inhibitors: cytotoxicity in A549 cells | A549 ARE-Fluc cells, CellTiter-Fluor viability, 18-24 h | Potency, µM (doses to about 46 µM), inactives show at the highest dose activity change, negative = cytotoxicity, actives largely listed as inhibitors | 390,000 tested, 0.16% active | AID 504648; further: potency means the concentration at half of the fitted maximal effect; on the % scale 0 is the no-effect control and ±100 the full control effect
#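 Cytotoxicity counterscreen: CellTiter-Fluor fluorescence was measured in A549 ARE_Fluc cells after 18-24 h of compound exposure in a concentration series. The subsequent BugLite luminescent read reports ARE-luciferase activity.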
# Nrf2 ARE act = activators of Nrf2 (ARE) signaling; AREc32 ARE-luciferase reporter (MCF7-derived line), luminescence, 24 h; Potency, µM (doses to about 46.1 µM), inactives show at the highest dose activation, hits mostly activators; 410,000 tested, 0.31% active; further: potency means the concentration at half of the fitted maximal effect; % of control where 0% means no effect; nearly all actives have a fitted effect of over 65% in size
#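 Luciferase luminescence (Steady-Glo, 30 min at room temperature) served as the read-out of ARE activation in AREc32 cells treated with compounds for 24 hr at 37 deg C.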
# Nrf2 inh = inhibitors of Nrf2 signaling | 360,000 tested, 2.1% active | Potency, µM (series often up to 46 µM), for the others: top-dose activity change, negative = inhibition, actives largely listed as inhibitors | A549 ARE-Fluc reporter, luciferase luminescence, 18-24 h; further: potency means the concentration at half of the fitted maximal effect; on the % scale 0 is the no-effect control and ±100 the full control effect; nearly all actives have a fitted effect of over 60% in size
#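 Cells were seeded and rested 2 h, then exposed to compounds for 18-24 h. CellTiter-Fluor was read first as a viability measure. BugLite was added 15 min before the final luminescent read of ARE-luciferase activity in A549 cells.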
# * = called active by the depositor; ? = inconclusive; . = no result; [ ] = dose if it differs, or a comment. Unless noted, the call rests on the fitted dose curve; in most records, active means well fitted curve in the direction sought with a large enough effect; inconclusive means small, poorly fitted or top-dose-only effect, or another doubt; inactive means no such curve, though single readings can be large; an effect the other way counts as inactive or inconclusive.
# Screens in order: miR-21 FLuc	PI4K2A block	GALK inh	A549 viability	Nrf2 ARE act	Nrf2 inh
1	COCc1nn2c(=O)cc(N3CCNCC3)nc2s1
    .	.	.	7%	.	5%
2	CCN(C(=O)C(C)N1C(=O)/C(=C/c2ccco2)SC1=S)C1CCS(=O)(=O)C1 (stereo unspecified)
    0%	?	0%	15µM*	25%	?
3	CCN(C(=O)CN1C(=O)S/C(=C\c2cccc(Cl)c2)C1=O)C1CCS(=O)(=O)C1 (stereo unspecified)
    7%	-2	-7%	0%	11µM*	-16%
4	C=CCN1C(=O)[C@@H](CC(=O)NCCC(C)C)[C@]2(C(=O)OCC)CCCCC/C=C/12
    .	-5	.	.	.	.
5	Cc1ccc(C2C3CSCC=C3C(C#N)=C(N)C2(C#N)C#N)cc1 (stereo unspecified)
    0%	-3	-2%	?	?	15µM*
6	CC(C)N1CC=C2C(C#N)=C(N)C(C#N)(C#N)C(c3ccccc3)C2C1 (stereo unspecified)
    -5%	0	0%	-16%	0%	?
7	CCN1C(=O)/C(=C/C=C2\C=CN(CC)c3ccccc32)SC1=S
    -19%	-2	9%	-14%	1%	6%
8	CCN1C(=O)/C(=C\C=C2/C=CC=CN2CC)SC1=S
    -9%	-18	8%	15µM*	0%	?
9	Cc1[nH]n2c(=O)cc(-c3ccc(Cl)cc3)nc2c1-c1ccccc1
    ?	2	.	-17%	0%	7.3µM*
10	Cc1[nH]n2c(=O)cc(-c3ccc([N+](=O)[O-])cc3)nc2c1-c1ccccc1
    .	-3	.	-28%	-1%	?
11	O=c1cc(-c2ccccc2)nc2c(Cl)cc(Cl)cn12
    .	-5	.	.	4µM*	.
12	Cc1[nH]n2c(=O)cc(C(C)(C)C)nc2c1-c1ccccc1
    24%	7	0%	-24%	-1%	7.3µM*
13	FC(F)(F)c1cc(Cl)c2nc(-c3ccccc3)cn2c1
    -68%	-9	0%	20%	?	.
14	CCCCc1c(C)nc2c(-c3ccc(Cl)cc3)c(C)[nH]n2c1=O
    ?	3	.	-6%	0%	5.8µM*
15	COC(=O)[C@]12C[C@H](CC(=O)NCc3cccs3)C(=O)N(CCc3ccc(OC)c(OC)c3)C1=C[C@H](C1CCCC1)O[C@@H]2C
    .	-6	.	.	.	.
16	COc1ccc(/C=C2/C(=O)N(c3ccccc3)N=C2C)cc1OC
    -2%	-30	3%	-2%	2%	-1%
17	CCOc1cc(/C=C2/C(=O)N(c3ccccc3)N=C2C)ccc1OC(=O)c1cccs1
    4%	-52*	5%	15%	3%	6%
18	COc1cc(C(=S)N2CCC(C)CC2)ccc1O
    -2%	4	0%	.	0%	18µM*
19	COc1cc(C(=S)N2CCCC2)ccc1O
    0%	5	1%	-9%[1.84 µM]	-1%	2%
20	COc1ccc(-n2c(COc3ccccc3)nnc2SCC(=O)Nc2ccc3c(c2)OCCO3)cc1
    .	-4	.	.	.	.
21	CC(C)(C)NC(=O)C1Cc2ccccc2CN1S(=O)(=O)c1ccc(F)cc1 (stereo unspecified)
    -3%	0	7%	-10%	3%	3%
22	N#Cc1ccc(NC(=O)C2Cc3ccccc3CN2S(=O)(=O)c2ccc(F)cc2)cc1 (stereo unspecified)
    12%	-1	.	?	6%	23µM*
23	O=C(Nc1ccc(O)cc1)C1CCCN1S(=O)(=O)c1ccc(F)cc1 (stereo unspecified)
    -10%	-1	0%	-11%	0%	15µM*
24	O=C1CSC2(C(=O)N(Cc3cccc(F)c3)c3ccccc32)N1c1cccc(C(F)(F)F)c1 (stereo unspecified)
    23%	1	.	-14%	0%	23µM*
25	COC(C(=O)Nc1ccc(S(=O)(=O)Nc2cccc3ccccc23)cc1)c1ccccc1 (stereo unspecified)
    -1%	-2	-2%	-7%	0%[9.22 µM]	23µM*
26	O=S(=O)(c1ccsc1)N1CCN(c2nc(-c3cccs3)nc3ccccc23)CC1
    .	.	.	0%	.	4%
27	Cc1ccccc1OCCCCn1cnc2ccccc21
    -7%	5	-1%	-2%	2%	6.5µM*
28	c1ccc(OCCCCn2cnc3ccccc32)cc1
    0%	-8	-4%	-17%	0%	23µM*
29	Cc1ccccc1OCCCCn1c(CO)nc2ccccc21
    11%	-2	-1%	1%	0%	23µM*
30	c1ccc(OCCn2cnc3ccccc32)cc1
    -18%	9	0%	2%	0%	4%

# Limited to miR-21 FLuc and GALK inh, for some of the entries so far:
No. | SMILES | miR-21 FLuc | GALK inh
12 | Cc1[nH]n2c(=O)cc(C(C)(C)C)nc2c1-c1ccccc1 | 24% | 0%
13 | FC(F)(F)c1cc(Cl)c2nc(-c3ccccc3)cn2c1 | -68% | 0%
14 | CCCCc1c(C)nc2c(-c3ccc(Cl)cc3)c(C)[nH]n2c1=O | ? | .

# The listing continues.
# Screens in order: miR-21 FLuc	PI4K2A block	GALK inh	A549 viability	Nrf2 ARE act	Nrf2 inh
31	Cc1ccc(OCCCCn2cnc3ccccc32)cc1
    2%	7	-1%	12%	0%	?
32	CC(C)N(C(=O)/C=C/c1cccc([N+](=O)[O-])c1)C(C)C
    -10%	0	2%	0%	14µM*	4%
33	CCCN(CCC)C(=O)/C=C/c1cccc([N+](=O)[O-])c1
    -3%	4	1%	12%	12%	-8%
34	CCc1ccccc1NC(=O)CSc1nc2n[nH]c(C)c2c(=N)n1-c1cccc(OC)c1
    15%	-1	-3%	?	7%	18µM*
35	COc1ccc(OC)c(NC(=O)CSc2nc3n[nH]c(C)c3c(=N)n2-c2cccc(Cl)c2C)c1
    3%	-2	-2%	?	5%	16µM*
36	CC12CCC(=O)C=C1CCC1C2CCC2(C)C1CCC2(O)C(=O)CO (stereo unspecified)
    .	-2	.	-15%	0%	?
37	CC1CC2C3CCC4=CC(=O)CCC4(C)C3CCC2(C)C1(O)C(=O)CO (stereo unspecified)
    .	2	.	-4%	4%	0.65µM*
38	CCC(=O)OC1(C(C)=O)CCC2C3CCC4=CC(=O)CCC4(C)C3CCC21C (stereo unspecified)
    .	4	.	6%	6%	1.2µM*
39	CC(=O)O[C@]1(C(C)=O)CC[C@H]2[C@@H]3C[C@H](C)C4=CC(=O)CC[C@]4(C)[C@H]3CC[C@@]21C
    15%	2	4%	-14%	1%	0.26µM*
40	CC(=O)OC1(C(C)=O)CCC2C3CC(C(F)(F)F)C4=CC(=O)CCC4(C)C3CCC21C (stereo unspecified)
    .	-4	.	-6%	7.1µM*	-14%
41	CC[C@H](CCCCCC#N)CCC(=O)N(c1ccccc1)c1ccccc1
    .	1	.	.	.	.
42	COc1ccc(/C=C2\CC3(OC(=O)c4ccco4)CCCN2C3)cc1 (stereo unspecified)
    .	-2	.	.	.	.
43	CCCCCOc1ccccc1/C(=C\SC)n1ccnc1
    .	3	.	.	.	.
44	O=C(CCc1ccccc1)N[C@H]1[C@H](OCc2ccccc2)CCC[C@@]12C(=O)N(Cc1ccccc1)c1ccc(-c3ccsc3)cc12
    .	-28	.	.	.	.

# Profiles, looked up by structure. Screens in order: miR-21 FLuc, PI4K2A block, GALK inh, A549 viability, Nrf2 ARE act, Nrf2 inh
# CC(=O)OC1(C(C)=O)CCC2C3CC(C(F)(F)F)C4=CC(=O)CCC4(C)C3CCC21C (stereo unspecified) in the list: ., -4, ., -6%, 7.1µM*, -14%
# CCCN(CCC)C(=O)/C=C/c1cccc([N+](=O)[O-])c1 in the list: -3%, 4, 1%, 12%, 12%, -8%
# CCC(=O)OC1(C(C)=O)CCC2C3CCC4=CC(=O)CCC4(C)C3CCC21C (stereo unspecified) in the list: ., 4, ., 6%, 6%, 1.2µM*
